How the values were obtained:
Carney cells = assay: Acute drug treatment with 13C6-glucose tracing (GCMS, LC-MS/MS); format: cell-based; conditions: 3-hour compound treatment
[1] = test system: three lines sensitive to serine withdrawal; conditions: serine replete media

## CCOC(=O)c1sc(NC(=O)c2ccco2)c(SC#N)c1C [Compound (1), Ethyl 5-(furan-2-carboxamido)-3-methyl-4-thiocyanatothiophene-2-carboxylate]
Carney cells
  decrease of de novo serine synthesis: 30%
[1]
  effect on growth: no effect

Reference: patent publication US10494365B2, “Small molecule inhibitor of 3-phosphoglycerate dehydrogenase and uses thereof” (The Scripps Research Institute, priority 2015, dated 2019)
